Experiment [1] has as its target T1, WD repeat-containing protein 5 (Homo sapiens, UniProt P61964). As to conditions: MV4-11, 600 nM.
The target of experiment [2] is T1, WD repeat-containing protein 5. The settings on record: MV4-11, 1 uM.
Experiment [3] shares this target. As to conditions: MV4-11, 300 nM.
For experiment [4] the target is unchanged. The settings on record: MV4-11, 600 nM. The source holds these as a separate data set.
Experiment [5] has the same target. The settings on record: MV4-11, 300 nM. The source holds these as a separate data set.
For experiment [6] the target is unchanged. As to conditions: MV4-11, 600 nM. The source holds these as a separate data set.

Our source for the inhibition values is ChEMBL document CHEMBL4376866, “Discovery and Structure-Based Optimization of Potent and Selective WD Repeat Domain 5 (WDR5) Inhibitors Containing a Dihydroisoquinolinone Bicyclic Core” (J Med Chem, 2020).

The source made the active and inactive calls. The rule behind the calls is not given here.

Consider `COc1cc(CN2CCc3c(cc(Cn4ccn(C)c4=N)cc3-c3ccc(F)cc3C)C2=O)cc(OC)c1`, for which the inhibition in experiment [1], in experiment [4] and in experiment [6] was 90% each time. In addition, the inhibition entry in experiment [2], in experiment [3] and in experiment [5] was “Active” in each case.
